Results published in patent US20120094998A1, “Oligomer-Protein Tyrosine Kinase Inhibitor Conjugates” (Nektar Therapeutics, priority 2009, published 2012).

Sequences of proteins named here, by UniProt entry; tags and fusion partners are left off. Residues count along the entry.
UniProt P09619, 33-1106, species assumed: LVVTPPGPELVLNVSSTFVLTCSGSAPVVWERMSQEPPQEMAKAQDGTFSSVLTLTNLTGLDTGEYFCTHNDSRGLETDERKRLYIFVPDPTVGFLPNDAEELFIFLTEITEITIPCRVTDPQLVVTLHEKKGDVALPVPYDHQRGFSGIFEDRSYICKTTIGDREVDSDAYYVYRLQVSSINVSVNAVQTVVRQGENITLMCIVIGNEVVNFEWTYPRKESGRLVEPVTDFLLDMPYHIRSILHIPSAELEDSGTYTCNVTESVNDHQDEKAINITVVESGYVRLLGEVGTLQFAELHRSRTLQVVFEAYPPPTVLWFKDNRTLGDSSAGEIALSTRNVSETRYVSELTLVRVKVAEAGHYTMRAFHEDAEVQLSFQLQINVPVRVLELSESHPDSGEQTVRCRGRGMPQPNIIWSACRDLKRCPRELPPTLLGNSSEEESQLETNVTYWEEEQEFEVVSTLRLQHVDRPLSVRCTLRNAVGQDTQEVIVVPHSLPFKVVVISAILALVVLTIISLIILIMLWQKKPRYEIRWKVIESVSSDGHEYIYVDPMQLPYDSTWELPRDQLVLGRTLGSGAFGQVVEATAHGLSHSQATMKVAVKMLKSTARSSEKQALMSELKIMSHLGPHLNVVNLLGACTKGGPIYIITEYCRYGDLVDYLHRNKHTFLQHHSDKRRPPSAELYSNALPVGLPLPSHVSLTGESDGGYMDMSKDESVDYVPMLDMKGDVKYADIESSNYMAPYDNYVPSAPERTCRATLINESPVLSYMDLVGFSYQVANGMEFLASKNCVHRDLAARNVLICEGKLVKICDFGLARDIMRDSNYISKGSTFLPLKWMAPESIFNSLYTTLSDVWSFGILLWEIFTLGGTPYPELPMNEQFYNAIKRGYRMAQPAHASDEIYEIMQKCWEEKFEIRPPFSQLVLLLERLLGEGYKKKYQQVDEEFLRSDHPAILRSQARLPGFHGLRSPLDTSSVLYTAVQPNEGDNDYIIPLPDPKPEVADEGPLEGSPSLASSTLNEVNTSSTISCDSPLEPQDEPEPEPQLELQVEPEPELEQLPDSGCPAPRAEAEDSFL
UniProt Q96GD4, whole entry: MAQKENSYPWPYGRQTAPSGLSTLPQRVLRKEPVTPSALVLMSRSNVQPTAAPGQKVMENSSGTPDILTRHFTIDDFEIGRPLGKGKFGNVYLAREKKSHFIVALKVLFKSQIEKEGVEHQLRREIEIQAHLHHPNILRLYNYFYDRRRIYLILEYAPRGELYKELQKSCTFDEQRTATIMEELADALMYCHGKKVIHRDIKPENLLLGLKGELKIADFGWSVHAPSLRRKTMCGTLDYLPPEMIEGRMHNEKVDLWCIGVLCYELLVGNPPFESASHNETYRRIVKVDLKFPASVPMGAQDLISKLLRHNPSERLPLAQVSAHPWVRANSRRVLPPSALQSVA
UniProt P16234, 24-1089, species assumed: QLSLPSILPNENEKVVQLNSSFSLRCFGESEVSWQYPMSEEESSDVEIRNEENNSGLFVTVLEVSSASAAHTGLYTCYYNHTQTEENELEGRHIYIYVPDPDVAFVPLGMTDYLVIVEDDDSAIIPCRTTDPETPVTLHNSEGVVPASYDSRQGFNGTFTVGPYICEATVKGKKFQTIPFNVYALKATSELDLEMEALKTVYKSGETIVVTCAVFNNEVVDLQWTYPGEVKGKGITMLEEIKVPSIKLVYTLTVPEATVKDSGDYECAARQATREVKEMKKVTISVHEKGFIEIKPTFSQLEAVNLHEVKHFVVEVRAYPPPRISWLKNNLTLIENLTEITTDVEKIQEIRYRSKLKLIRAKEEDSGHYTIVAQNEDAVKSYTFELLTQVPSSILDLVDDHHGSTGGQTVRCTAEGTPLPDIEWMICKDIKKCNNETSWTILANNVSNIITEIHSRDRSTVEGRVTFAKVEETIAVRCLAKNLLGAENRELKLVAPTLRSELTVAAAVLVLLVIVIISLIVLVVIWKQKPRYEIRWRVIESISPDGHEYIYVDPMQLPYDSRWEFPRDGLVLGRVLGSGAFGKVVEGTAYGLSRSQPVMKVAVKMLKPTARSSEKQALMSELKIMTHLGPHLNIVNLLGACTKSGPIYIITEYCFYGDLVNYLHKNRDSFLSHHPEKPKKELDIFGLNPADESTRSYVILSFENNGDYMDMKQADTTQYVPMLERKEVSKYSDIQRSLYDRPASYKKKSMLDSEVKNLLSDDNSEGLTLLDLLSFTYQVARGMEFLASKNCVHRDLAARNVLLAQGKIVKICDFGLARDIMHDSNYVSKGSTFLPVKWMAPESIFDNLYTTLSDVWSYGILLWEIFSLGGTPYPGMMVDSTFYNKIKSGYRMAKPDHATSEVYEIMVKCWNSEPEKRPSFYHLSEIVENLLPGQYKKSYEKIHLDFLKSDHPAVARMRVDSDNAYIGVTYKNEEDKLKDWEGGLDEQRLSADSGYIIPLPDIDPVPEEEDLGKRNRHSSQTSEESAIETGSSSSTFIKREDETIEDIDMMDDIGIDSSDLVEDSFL
UniProt P22607, 23-806, species assumed: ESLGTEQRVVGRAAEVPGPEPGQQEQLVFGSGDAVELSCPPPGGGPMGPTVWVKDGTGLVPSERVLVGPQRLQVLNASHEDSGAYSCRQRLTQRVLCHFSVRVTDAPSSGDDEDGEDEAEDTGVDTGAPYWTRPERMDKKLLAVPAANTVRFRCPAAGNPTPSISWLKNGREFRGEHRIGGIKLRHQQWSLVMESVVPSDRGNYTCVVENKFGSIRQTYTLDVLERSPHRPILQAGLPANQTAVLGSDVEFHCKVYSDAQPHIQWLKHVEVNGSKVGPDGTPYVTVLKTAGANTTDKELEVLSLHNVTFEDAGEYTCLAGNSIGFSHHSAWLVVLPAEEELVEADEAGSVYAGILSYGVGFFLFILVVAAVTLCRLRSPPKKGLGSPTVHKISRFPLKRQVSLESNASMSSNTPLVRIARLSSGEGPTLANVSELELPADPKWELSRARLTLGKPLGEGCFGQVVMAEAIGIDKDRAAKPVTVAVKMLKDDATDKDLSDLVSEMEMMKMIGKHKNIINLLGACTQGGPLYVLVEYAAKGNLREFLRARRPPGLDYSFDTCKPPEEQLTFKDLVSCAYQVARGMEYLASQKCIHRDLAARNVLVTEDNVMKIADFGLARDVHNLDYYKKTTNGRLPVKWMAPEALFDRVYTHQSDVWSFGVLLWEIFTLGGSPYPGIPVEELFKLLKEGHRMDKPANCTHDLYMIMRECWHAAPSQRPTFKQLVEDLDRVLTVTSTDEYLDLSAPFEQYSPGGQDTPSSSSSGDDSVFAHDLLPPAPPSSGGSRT
UniProt P49137, whole entry, species assumed: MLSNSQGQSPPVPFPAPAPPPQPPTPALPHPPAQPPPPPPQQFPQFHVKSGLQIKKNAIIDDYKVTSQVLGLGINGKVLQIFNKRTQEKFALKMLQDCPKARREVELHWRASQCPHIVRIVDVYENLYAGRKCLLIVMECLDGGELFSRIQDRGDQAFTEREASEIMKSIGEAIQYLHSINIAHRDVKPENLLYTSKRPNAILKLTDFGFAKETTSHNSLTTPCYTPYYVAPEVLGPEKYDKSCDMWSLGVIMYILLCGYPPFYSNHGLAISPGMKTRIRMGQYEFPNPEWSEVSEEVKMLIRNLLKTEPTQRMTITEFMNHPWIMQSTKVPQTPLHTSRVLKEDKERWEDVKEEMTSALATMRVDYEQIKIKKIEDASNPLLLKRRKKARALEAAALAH
UniProt O75582, whole entry, species assumed: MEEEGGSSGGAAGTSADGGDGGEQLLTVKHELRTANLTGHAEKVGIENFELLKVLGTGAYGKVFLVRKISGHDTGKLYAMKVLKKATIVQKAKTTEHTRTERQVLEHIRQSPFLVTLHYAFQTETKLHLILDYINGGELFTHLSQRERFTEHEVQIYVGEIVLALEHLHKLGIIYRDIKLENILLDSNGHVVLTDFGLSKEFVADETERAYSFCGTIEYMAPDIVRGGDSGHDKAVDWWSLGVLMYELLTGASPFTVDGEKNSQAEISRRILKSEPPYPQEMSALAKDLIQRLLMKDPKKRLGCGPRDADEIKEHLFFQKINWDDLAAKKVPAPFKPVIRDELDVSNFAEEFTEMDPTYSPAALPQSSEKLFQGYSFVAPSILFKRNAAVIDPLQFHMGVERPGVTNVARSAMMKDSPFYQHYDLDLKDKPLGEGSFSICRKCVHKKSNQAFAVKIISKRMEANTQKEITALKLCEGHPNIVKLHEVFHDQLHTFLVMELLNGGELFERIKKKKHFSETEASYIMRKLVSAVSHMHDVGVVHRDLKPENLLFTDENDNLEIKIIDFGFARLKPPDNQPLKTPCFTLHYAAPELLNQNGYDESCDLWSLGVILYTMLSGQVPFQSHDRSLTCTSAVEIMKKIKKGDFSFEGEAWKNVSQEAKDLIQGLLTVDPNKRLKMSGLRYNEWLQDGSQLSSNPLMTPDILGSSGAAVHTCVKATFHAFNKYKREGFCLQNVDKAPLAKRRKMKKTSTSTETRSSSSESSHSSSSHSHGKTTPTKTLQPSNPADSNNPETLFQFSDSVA

Key:
PDGFR_beta = PDGFR_beta (Homo sapiens, UniProt P09619); test: Activity against various protein tyrosine kinases: PDGFR_beta
AurB = AurB (Homo sapiens, UniProt Q96GD4); test: Activity against various protein tyrosine kinases: AurB; details: read-out: % Inhibition at 10 nM
PDGFR_alpha = PDGFR_alpha (Homo sapiens, UniProt P16234); test: Activity against various protein tyrosine kinases: PDGFR_alpha; details: read-out: % Inhibition at 1 μM
FGFR3 = FGFR3 (Homo sapiens, UniProt P22607); test: Activity against various protein tyrosine kinases: FGFR3
MAPKAPK2 = MAPKAPK2 (Homo sapiens, UniProt P49137); test: Activity against various protein tyrosine kinases: MAPKAPK2
CHK1 = biological target: T1, CHK1 (Homo sapiens, UniProt O14757); test: Activity against various protein tyrosine kinases: CHK1; details: read-out: % Inhibition at 1 μM
T1 sequence (O14757 1-476): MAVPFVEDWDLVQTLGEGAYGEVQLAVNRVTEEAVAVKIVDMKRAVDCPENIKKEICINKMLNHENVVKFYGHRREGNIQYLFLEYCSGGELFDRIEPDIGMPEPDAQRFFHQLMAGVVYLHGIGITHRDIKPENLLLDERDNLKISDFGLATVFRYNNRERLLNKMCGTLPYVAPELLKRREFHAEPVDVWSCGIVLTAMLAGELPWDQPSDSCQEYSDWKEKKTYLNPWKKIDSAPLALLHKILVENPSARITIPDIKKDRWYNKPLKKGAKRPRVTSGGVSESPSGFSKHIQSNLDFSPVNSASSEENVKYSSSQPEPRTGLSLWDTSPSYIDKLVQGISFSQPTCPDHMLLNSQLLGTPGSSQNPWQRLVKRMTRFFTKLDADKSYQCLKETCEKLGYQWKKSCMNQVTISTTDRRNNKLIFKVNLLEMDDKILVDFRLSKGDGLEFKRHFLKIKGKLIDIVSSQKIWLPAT

MSK1 = MSK1 (Homo sapiens, UniProt O75582); test: Activity against various protein tyrosine kinases: MSK1; details: read-out: % Inhibition at 10 nM
[1] = read-out: % Inhibition at 10 nM

`Cc1nc(Nc2ncc(C(=O)Nc3c(C)cccc3Cl)s2)cc(N2CCN(CCO)CC2)n1` [Dasatinib, reference compound] gave an inhibition at 0.01 µM (PDGFR_beta; [1]) of 54%, an inhibition at 1 µM (PDGFR_beta; read-out: % Inhibition at 1 μM) of 100% and an inhibition at 0.01 µM (AurB) of 0%. The inhibition at 1 µM (PDGFR_alpha) was 98%, the inhibition at 0.01 µM (FGFR3; [1]) was 2% and the inhibition at 1 µM (FGFR3; read-out: % Inhibition at 1 μM) was 9%. For the same compound, the inhibition at 0.01 µM (MAPKAPK2; [1]) was -1%, the inhibition at 1 µM (MAPKAPK2; read-out: % Inhibition at 1 μM) was 1% and the inhibition at 1 µM (CHK1) was 0%. It also gave an inhibition at 0.01 µM (MSK1) of 1%.
